Source: PubChem BioAssay AID1224861 (National Center for Advancing Translational Sciences (NCATS), 2016)
The list shows a part of the results, in another mix than the full data. Records with an inconclusive call do not appear. Calls of active or inactive are those of the source. Calls come from the whole dose curve; as a rule, active = well fitted cell-killing curve with a large enough effect; inconclusive = small, poorly fitted or top-dose-only effect, or effect the other way; inactive = flat fitted curve, though single readings scatter.

Experiment: Compound cytotoxicity measured by an ATP content assay as a counter-screen for lead compounds in human astrocytes
Settings: human astrocytes viability, ATP luminescence; at 46.1 µM (top of the series)
Description: National Center for Advancing Translational Sciences [NCATS] Johns Hopkins University School of Medicine Florida State University Assay Overview: Many compounds can cause cytotoxicity at high compound concentrations. […] The compound cytotoxicity may also cause side effects or toxicity in human. Thus, the compound cytotoxicity needs to be measured in each cell type and each compound incubation time - same as these in the compound screening assay. The compound cytotoxicity can be measured by cell viability assays such as the ATP content assay. We use an ATP content assay kit for cell viability measurement. It measures ATP content (level) in human astrocytes using a luminescence readout that is proportional to viable cell numbers. Decrease in the luminescence signal after the compound treatment indicates reduced cell viability and cell death caused by compound treatment.
Assay Protocol Summary: The medium for astrocytes contains AM basal medium (ScienCell, Cat.# 1801), AGS (ScienCell, Cat.# 1801), 10% FBS, and 1% Pen/Strep. […] After incubation at room temperature for 10 minutes, the luminescence intensity in assay plates was measured using a ViewLux plate reader (PerkinElmer). […] The percentage inhibitions of the decreased cell viability by small molecules were then calculated that indicate compound cytotoxicity.

| SMILES | activity change, negative = cytotoxicity |
| --- | --- |
| CCOP(=O)(CC)Oc1ccc([N+](=O)[O-])cc1 (configuration not stated) | inactive: 3.19% |
| C/C1=C2N=C(/C=C3N=C(/C(C)=C4\[N-][C@@](C)([C@@H]5N=C1[C@](C)(CCC(=O)NC[C@@H](C)OP(=O)([O-])O[C@H]1[C@@H](O)[C@@H](n6cnc7cc(C)c(C)cc76)O[C@@H]1CO)[C@H]5CC(N)=O)[C@@](C)(CC(N)=O)[C@@H]4CCC(N)=O)[C@@](C)(CC(N)=O)[C@@H]\3CCC(N)=O)C(C)(C)[C@@H]/2CCC(N)=O.[C-]#N.[Co+3] | inactive: -10.9% |
